Source: patent US12590088B2 (dated 2026)
Where two headings read alike, the source gives them in different places.

The chains behind the UniProt entries cited, without tags or fusion partners. Where a name states a change or a piece, a line headed by the entry shows the natural chain unless it says otherwise.
UniProt P23458: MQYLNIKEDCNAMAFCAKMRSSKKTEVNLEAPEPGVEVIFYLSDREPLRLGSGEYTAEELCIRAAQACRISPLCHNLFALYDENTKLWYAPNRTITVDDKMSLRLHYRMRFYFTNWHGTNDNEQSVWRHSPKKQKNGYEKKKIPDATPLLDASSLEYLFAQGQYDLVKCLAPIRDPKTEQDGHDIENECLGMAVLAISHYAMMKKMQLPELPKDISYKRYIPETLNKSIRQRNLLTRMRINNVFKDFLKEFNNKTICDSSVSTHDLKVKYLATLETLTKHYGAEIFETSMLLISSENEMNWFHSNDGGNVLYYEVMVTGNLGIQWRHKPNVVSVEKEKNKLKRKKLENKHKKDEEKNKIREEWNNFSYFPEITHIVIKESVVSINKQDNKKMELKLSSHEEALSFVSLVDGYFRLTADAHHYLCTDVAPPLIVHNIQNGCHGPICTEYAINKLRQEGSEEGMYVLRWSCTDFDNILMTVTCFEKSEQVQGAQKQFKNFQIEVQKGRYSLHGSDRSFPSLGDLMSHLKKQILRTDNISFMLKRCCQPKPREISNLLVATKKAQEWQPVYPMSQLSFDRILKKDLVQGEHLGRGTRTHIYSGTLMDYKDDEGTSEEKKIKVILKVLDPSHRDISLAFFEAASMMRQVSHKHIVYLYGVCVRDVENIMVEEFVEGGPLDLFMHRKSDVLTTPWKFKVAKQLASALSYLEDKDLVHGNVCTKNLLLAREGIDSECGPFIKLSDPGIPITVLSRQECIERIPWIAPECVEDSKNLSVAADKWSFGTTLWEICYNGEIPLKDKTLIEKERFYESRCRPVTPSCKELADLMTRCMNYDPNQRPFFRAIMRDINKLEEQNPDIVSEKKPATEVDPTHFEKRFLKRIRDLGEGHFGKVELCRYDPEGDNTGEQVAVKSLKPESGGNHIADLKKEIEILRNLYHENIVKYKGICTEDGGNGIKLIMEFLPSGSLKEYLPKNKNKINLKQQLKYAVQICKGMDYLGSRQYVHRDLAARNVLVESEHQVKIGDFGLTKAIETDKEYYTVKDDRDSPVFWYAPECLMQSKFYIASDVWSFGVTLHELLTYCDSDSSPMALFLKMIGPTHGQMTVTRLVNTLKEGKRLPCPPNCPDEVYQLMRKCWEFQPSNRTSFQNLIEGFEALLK
UniProt O60674: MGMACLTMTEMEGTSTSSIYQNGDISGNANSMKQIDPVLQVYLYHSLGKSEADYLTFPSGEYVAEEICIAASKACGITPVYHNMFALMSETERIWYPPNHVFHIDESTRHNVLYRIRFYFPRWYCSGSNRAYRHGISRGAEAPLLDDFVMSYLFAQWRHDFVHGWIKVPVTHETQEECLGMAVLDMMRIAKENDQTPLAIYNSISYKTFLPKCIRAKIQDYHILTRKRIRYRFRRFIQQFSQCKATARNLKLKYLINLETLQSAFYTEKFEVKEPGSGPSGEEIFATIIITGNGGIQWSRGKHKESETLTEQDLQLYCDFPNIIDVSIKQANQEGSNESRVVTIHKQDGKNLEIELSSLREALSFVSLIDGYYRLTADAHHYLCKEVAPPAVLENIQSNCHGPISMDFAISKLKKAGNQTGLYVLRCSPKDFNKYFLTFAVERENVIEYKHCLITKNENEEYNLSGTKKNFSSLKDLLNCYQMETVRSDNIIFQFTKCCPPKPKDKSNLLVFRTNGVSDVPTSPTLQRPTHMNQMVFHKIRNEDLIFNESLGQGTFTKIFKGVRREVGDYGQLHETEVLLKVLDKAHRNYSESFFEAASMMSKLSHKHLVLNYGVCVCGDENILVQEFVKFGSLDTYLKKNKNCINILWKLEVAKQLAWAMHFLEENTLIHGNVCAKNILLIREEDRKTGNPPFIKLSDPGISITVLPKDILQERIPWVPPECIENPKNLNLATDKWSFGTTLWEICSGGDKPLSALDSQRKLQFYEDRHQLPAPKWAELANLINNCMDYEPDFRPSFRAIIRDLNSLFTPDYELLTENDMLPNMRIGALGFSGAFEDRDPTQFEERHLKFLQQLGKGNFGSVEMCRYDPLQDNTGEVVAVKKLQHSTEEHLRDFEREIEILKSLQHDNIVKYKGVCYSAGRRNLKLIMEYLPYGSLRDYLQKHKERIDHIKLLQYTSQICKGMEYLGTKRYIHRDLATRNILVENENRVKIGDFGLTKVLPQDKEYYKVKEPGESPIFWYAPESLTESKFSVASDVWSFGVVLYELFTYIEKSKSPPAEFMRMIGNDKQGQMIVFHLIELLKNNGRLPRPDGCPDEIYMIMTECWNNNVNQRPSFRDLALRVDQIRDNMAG
UniProt P29597: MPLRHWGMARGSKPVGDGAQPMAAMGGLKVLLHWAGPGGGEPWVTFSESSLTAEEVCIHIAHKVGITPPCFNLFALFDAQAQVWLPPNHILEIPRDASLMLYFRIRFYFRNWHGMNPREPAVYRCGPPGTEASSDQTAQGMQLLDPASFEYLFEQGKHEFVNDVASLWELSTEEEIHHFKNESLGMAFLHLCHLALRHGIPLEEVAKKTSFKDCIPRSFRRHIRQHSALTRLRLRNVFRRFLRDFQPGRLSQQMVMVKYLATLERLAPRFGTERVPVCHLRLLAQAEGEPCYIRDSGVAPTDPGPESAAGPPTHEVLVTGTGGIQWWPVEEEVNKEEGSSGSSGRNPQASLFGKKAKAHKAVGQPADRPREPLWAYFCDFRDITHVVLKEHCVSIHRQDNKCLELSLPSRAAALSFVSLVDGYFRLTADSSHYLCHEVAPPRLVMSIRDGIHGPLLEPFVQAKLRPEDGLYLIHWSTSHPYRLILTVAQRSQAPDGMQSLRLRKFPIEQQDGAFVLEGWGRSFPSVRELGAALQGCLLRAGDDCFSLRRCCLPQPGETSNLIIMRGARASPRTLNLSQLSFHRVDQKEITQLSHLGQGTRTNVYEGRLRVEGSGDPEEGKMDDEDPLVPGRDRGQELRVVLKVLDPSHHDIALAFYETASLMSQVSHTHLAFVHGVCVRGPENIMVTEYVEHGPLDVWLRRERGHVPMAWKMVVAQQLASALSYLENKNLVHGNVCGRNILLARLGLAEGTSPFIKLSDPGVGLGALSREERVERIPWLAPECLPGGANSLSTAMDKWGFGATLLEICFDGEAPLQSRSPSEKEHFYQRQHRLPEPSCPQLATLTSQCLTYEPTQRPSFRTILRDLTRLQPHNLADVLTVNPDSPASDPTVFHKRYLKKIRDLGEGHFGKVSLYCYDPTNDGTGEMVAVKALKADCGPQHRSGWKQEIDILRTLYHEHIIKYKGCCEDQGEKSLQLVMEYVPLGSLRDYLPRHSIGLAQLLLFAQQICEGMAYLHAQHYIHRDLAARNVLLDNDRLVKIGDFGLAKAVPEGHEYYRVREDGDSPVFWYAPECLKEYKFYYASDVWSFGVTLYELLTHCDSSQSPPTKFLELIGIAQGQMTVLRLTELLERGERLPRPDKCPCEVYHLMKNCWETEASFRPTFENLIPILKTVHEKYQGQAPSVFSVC

What was measured:
[1] = target: T1, JAK1 (Homo sapiens, UniProt P23458); experiment: JAK1 IC50 measurement
[2] = target: JAK2 (Homo sapiens, UniProt O60674); experiment: JAK2 IC50 measurement
[3] = target: T1, JAK1; experiment: Cell-based assay on Janus kinase inhibitors, JAK1 (GI50); conditions: read-out: GI50(μM) JAK1
[4] = target: TYK2 (Homo sapiens, UniProt P29597); experiment: TYK2 IC50 measurement

Compound | IC50 ([1]; read-out: IC50(μM) JAK1) [µM] | also measured
CNC(=O)c1cnc2[nH]ccc2c1N[C@@H]1CCN(Cc2cccc(Cl)c2)C1 [Compound 15f, (R)-4-((1-(3-chlorobenzyl)pyrrolidin-3-yl)amino)-N-methyl-1H-pyrrolo[2,3-b]pyridine-5-carboxamide] |  | IC50 [1]: 0.0798 µM
CNC(=O)c1cnc2[nH]ccc2c1NC1CC2CCC(C1)N2Cc1cccc(OC)c1 (stereo not drawn) [Compound 17d, 4-((8-(3-Methoxybenzyl)-8-azabicyclo[3.2.1]octan-3-yl)amino)-N-methyl-1H-pyrrolo[2,3-b]pyridine-5-carboxamide] | 0.0461 | 
CNC(=O)c1cnc2[nH]ccc2c1N[C@@H]1CCN(Cc2cccc(OC)c2)[C@@H](C)C1 (relative stereo) [Compound 20d, 4-((trans-1-(3-Methoxybenzyl)-2-methylpiperidin-4-yl)amino)-N-methyl-1H-pyrrolo[2,3-b]pyridine-5-carboxamide] |  | IC50 [2]: 0.0885 µM
CNC(=O)c1cnc2[nH]ccc2c1N[C@H]1CCN(Cc2cccc(Cl)c2)C1 [Compound 15h, (S)-4-((1-(3-Chlorobenzyl)pyrrolidin-3-yl)amino)-N-methyl-1H-pyrrolo[2,3-b]pyridine-5-carboxamide] |  | IC50 [1]: 0.42 µM
CNC(=O)c1cnc2[nH]ccc2c1NC1CCN(Cc2cccc(OC)c2)C1 (stereo not drawn) [Compound 15d, 4-((1-(3-Methoxybenzyl)pyrrolidin-3-yl)amino)-N-methyl-1H-pyrrolo[2,3-b]pyridine-5-carboxamide] | 0.827 | 
CNC(=O)c1cnc2[nH]ccc2c1NC1CCN(Cc2ccc(OC)cc2)C1 (stereo not drawn) [Compound 15e, 4-((1-(4-Methoxybenzyl)pyrrolidin-3-yl)amino)-N-methyl-1H-pyrrolo[2,3-b]pyridine-5-carboxamide] | 0.149 | 
CNC(=O)c1cnc2[nH]ccc2c1NC1CCN(Cc2ccccc2)C1 (stereo not drawn) [Compound 15a, 4-((1-Benzylpyrrolidin-3-yl)amino)-N-methyl-1H-pyrrolo[2,3-b]pyridine-5-carboxamide] | 0.4 | 
CNC(=O)c1cnc2[nH]ccc2c1NC1CCCN(Cc2ccc(C#N)cc2)CC1 (stereo not drawn) [Compound 19e, 4-((1-(4-Cyanobenzyl)azepan-4-yl)amino)-N-methyl-1H-pyrrolo[2,3-b]pyridine-5-carboxamide] | 0.0327 | 
CNC(=O)c1cnc2[nH]ccc2c1NC1CC2CCC(C1)N2Cc1ccccc1 (stereo not drawn) [Compound 17a, 4-((8-Benzyl-8-azabicyclo[3.2.1]octan-3-yl)amino)-N-methyl-1H-pyrrolo[2,3-b]pyridine-5-carboxamide] | 0.0749 | 
CNC(=O)c1cnc2[nH]ccc2c1NC1CC2CCC(C1)N2Cc1ccc(Cl)cc1 (stereo not drawn) [Compound 17c, 4-((8-(4-Chlorobenzyl)-8-azabicyclo[3.2.1]octan-3-yl)amino)-N-methyl-1H-pyrrolo[2,3-b]pyridine-5-carboxamide] | 0.0174 | GI50 [3]: 1.17 µM
CNC(=O)c1cnc2[nH]ccc2c1N[C@@H]1CCN(Cc2cccc(Cl)c2)C[C@H]1F (relative stereo) [Compound 21a, 4-((trans-1-(3-Chlorobenzyl)-3-fluoropiperidin-4-yl)amino)-N-methyl-1H-pyrrolo[2,3-b]pyridine-5-carboxamide] |  | IC50 [4]: 0.308 µM; IC50 [1]: 0.017 µM; IC50 [2]: 0.028 µM
CNC(=O)c1cnc2[nH]ccc2c1NC1CCN(Cc2ccc(Cl)cc2)C1 (stereo not drawn) [Compound 15c, 4-((1-(4-Chlorobenzyl)pyrrolidin-3-yl)amino)-N-methyl-1H-pyrrolo[2,3-b]pyridine-5-carboxamide] | 0.0801 | 
CNC(=O)c1cnc2[nH]ccc2c1N[C@H]1CCN(Cc2ccc(Cl)cc2)C1 [Compound 15i, (S)-4-((1-(4-Chlorobenzyl)pyrrolidin-3-yl)amino)-N-methyl-1H-pyrrolo[2,3-b]pyridine-5-carboxamide] |  | IC50 [1]: 0.703 µM
CNC(=O)c1cnc2[nH]ccc2c1NCC1CCN(Cc2ccccc2)CC1 [Compound 14a, 4-(((1-Benzylpiperidin-4-yl)methyl)amino)-N-methyl-1H-pyrrolo[2,3-b]pyridine-5-carboxamide] | 0.215 | 
CNC(=O)c1cnc2[nH]ccc2c1NC1CC2CCC(C1)N2Cc1cccc(Cl)c1 (stereo not drawn) [Compound 17b, 4-((8-(3-Chlorobenzyl)-8-azabicyclo[3.2.1]octan-3-yl)amino)-N-methyl-1H-pyrrolo[2,3-b]pyridine-5-carboxamide] | 0.0408 | 
CNC(=O)c1cnc2[nH]ccc2c1NC1CCCN(Cc2ccc(Cl)cc2)CC1 (stereo not drawn) [Compound 19c, 4-((1-(4-Chlorobenzyl)azepan-4-yl)amino)-N-methyl-1H-pyrrolo[2,3-b]pyridine-5-carboxamide] | 0.012 | 

Compound | IC50 ([1]; read-out: IC50(μM) JAK1) [µM] | also measured
CNC(=O)c1cnc2[nH]ccc2c1NC1CCCN(Cc2ccc(OC)cc2)CC1 (stereo not drawn) [Compound 19d, 4-((1-(4-Methoxybenzyl)azepan-4-yl)amino)-N-methyl-1H-pyrrolo[2,3-b]pyridine-5-carboxamide] | 0.0305 | 
CNC(=O)c1cnc2[nH]ccc2c1NC1CC2CCC(C1)N2Cc1ccc(OC)cc1 (stereo not drawn) [Compound 17e, 4-((8-(4-Methoxybenzyl)-8-azabicyclo[3.2.1]octan-3-yl)amino)-N-methyl-1H-pyrrolo[2,3-b]pyridine-5-carboxamide] | 0.0338 | 
CNC(=O)c1cnc2[nH]ccc2c1NC1CCN(Cc2cccc(Cl)c2)C1 (stereo not drawn) [Compound 15b, 4-((1-(3-Chlorobenzyl)pyrrolidin-3-yl)amino)-N-methyl-1H-pyrrolo[2,3-b]pyridine-5-carboxamide] | 0.06 | 
CNC(=O)c1cnc2[nH]ccc2c1NC1CCCN(Cc2ccccc2)CC1 (stereo not drawn) [Compound 19a, 4-((1-Benzylazepan-4-yl)amino)-N-methyl-1H-pyrrolo[2,3-b]pyridine-5-carboxamide] | 0.0377 | 
CNC(=O)c1cnc2[nH]ccc2c1N[C@H]1CCN(Cc2ccc(OC)cc2)[C@@H](C)C1 (relative stereo) [Compound 20i, 4-((cis-1-(4-Methoxybenzyl)-2-methylpiperidin-4-yl)amino)-N-methyl-1H-pyrrolo[2,3-b]pyridine-5-carboxamide] |  | IC50 [2]: 0.0632 µM
CNC(=O)c1cnc2[nH]ccc2c1NCC1CCN(Cc2ccc(Cl)cc2)CC1 [Compound 14c, 4-(((1-(4-Chlorobenzyl)piperidin-4-yl)methyl)amino)-N-methyl-1H-pyrrolo[2,3-b]pyridine-5-carboxamide] | 0.0722 | 
CNC(=O)c1cnc2[nH]ccc2c1NCC1CCN(Cc2cccc(Cl)c2)CC1 [Compound 14b, 4-(((1-(3-Chlorobenzyl)piperidin-4-yl)methyl)amino)-N-methyl-1H-pyrrolo[2,3-b]pyridine-5-carboxamide] | 0.243 | 
CNC(=O)c1cnc2[nH]ccc2c1NCC1CCN(Cc2cccc(OC)c2)CC1 [Compound 14d, 4-(((1-(3-Methoxybenzyl)piperidin-4-yl)methyl)amino)-N-methyl-1H-pyrrolo[2,3-b]pyridine-5-carboxamide] | 0.132 | 
CNC(=O)c1cnc2[nH]ccc2c1N[C@@H]1CCN(Cc2ccccc2)[C@@H](C)C1 (relative stereo) [Compound 20a, 4-((trans-1-Benzyl-2-methylpiperidin-4-yl)amino)-N-methyl-1H-pyrrolo[2,3-b]pyridine-5-carboxamide] |  | IC50 [2]: 0.179 µM
CNC(=O)c1cnc2[nH]ccc2c1NC1CCCN(Cc2cccc(Cl)c2)CC1 (stereo not drawn) [Compound 19b, 4-((1-(3-Chlorobenzyl)azepan-4-yl)amino)-N-methyl-1H-pyrrolo[2,3-b]pyridine-5-carboxamide] | 0.00943 | GI50 [3]: 0.472 µM
CNC(=O)c1cnc2[nH]ccc2c1N[C@H]1CCN(Cc2cccc(OC)c2)[C@@H](C)C1 (relative stereo) [Compound 20h, 4-((cis-1-(3-Methoxybenzyl)-2-methylpiperidin-4-yl)amino)-N-methyl-1H-pyrrolo[2,3-b]pyridine-5-carboxamide] |  | IC50 [2]: 0.0284 µM
CNC(=O)c1cnc2[nH]ccc2c1N[C@H]1CCN(Cc2ccc(C#N)cc2)[C@@H](C)C1 (relative stereo) [Compound 20j, 4-((cis-1-(4-Cyanobenzyl)-2-methylpiperidin-4-yl)amino)-N-methyl-1H-pyrrolo[2,3-b]pyridine-5-carboxamide] |  | IC50 [2]: 0.0045 µM
CNC(=O)c1cnc2[nH]ccc2c1N[C@@H]1CCN(Cc2ccc(OC)cc2)[C@@H](C)C1 (relative stereo) [Compound 20e, 4-((trans-1-(4-Methoxybenzyl)-2-methylpiperidin-4-yl)amino)-N-methyl-1H-pyrrolo[2,3-b]pyridine-5-carboxamide] |  | IC50 [2]: 0.817 µM
CNC(=O)c1cnc2[nH]ccc2c1NCC1CCN(Cc2ccc(OC)cc2)CC1 [Compound 14e, 4-(((1-(4-Methoxybenzyl)piperidin-4-yl)methyl)amino)-N-methyl-1H-pyrrolo[2,3-b]pyridine-5-carboxamide] | 0.0934 | 
CNC(=O)c1cnc2[nH]ccc2c1N[C@@H]1CCN(Cc2ccc(Cl)cc2)C1 [Compound 15g, (R)-4-((1-(4-Chlorobenzyl)pyrrolidin-3-yl)amino)-N-methyl-1H-pyrrolo[2,3-b]pyridine-5-carboxamide] |  | IC50 [1]: 0.0489 µM
CNC(=O)c1cnc2[nH]ccc2c1NC1CC2CCC(C1)N2Cc1ccc(C#N)cc1 (stereo not drawn) [Compound 17g, 4-((8-(4-Cyanobenzyl)-8-azabicyclo[3.2.1]octan-3-yl)amino)-N-methyl-1H-pyrrolo[2,3-b]pyridine-5-carboxamide] | 0.0153 | 
